# Paper PMC8491194, “A cyclic peptide retards the proliferation of DU145 prostate cancer cells in vitro and in vivo through inhibition of FGFR2” (MedComm, 2020)
# System: phosphorylated FGFR2, AKT, and ERK1/2
# Experiment: Western blot of phosphorylated FGFR2, AKT and ERK1/2 in xenograft tumors
# Assay type: in vivo, BALB/C‐nu/nu mice
# Conditions: tumor tissue of xenograft mice
substance,measurement,value
AZD4547 [reference compound],"phosphorylation of FGFR2, AKT, and ERK1/2",reduced
